The target in one test is P2X purinoceptor 7 (Homo sapiens, UniProt Q99572). In words: Antagonist activity at recombinant human P2X7 receptor assessed as inhibition of BzATP-mediated Yo-Pro uptake measured for 1 hr by FLIPR assay.
In a further test the target is T1, P2X purinoceptor 3 (Homo sapiens, UniProt P56373).
T1 sequence (P56373 whole entry): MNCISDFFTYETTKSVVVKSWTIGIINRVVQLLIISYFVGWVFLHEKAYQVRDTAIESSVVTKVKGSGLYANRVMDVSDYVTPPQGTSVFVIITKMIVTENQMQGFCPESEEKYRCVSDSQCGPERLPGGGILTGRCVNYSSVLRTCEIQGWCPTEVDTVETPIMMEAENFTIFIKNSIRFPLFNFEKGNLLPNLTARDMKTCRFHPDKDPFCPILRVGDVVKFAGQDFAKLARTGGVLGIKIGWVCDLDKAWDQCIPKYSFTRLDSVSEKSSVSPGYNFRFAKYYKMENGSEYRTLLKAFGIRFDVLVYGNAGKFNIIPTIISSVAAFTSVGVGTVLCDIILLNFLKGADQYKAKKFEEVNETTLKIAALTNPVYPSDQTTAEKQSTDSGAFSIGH
In words: Antagonist activity at human P2X3 receptor.

Sequences of proteins named here, by UniProt entry; tags and fusion partners are left off. A change or cut given only in a name is not applied to a line headed by its entry.
UniProt Q99572: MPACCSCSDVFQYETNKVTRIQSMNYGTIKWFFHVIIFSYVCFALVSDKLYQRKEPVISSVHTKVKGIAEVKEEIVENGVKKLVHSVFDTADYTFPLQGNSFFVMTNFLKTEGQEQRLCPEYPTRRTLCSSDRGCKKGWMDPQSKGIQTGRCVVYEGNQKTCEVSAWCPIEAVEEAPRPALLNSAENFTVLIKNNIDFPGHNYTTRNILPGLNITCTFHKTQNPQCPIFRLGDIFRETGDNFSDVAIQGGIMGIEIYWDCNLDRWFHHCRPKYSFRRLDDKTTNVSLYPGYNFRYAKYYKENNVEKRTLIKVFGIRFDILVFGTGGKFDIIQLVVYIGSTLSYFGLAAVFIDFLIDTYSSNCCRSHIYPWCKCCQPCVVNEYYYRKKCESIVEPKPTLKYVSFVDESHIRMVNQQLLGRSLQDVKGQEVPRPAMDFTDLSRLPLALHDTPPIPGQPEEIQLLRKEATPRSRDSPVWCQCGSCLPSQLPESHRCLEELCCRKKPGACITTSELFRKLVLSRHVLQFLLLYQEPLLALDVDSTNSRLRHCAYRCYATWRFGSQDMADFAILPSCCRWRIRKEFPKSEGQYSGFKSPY

Here are results for one molecule from ChEMBL document CHEMBL3091335, “Design and synthesis of potent and selective P2X₃ receptor antagonists derived from PPADS as potential pain modulators” (Eur J Med Chem, 2013).

`Cc1nc(/N=N/c2ccc(S(=O)(=O)O)cc2S(=O)(=O)O)c(COP(=O)(O)O)c(C=O)c1O`: the IC50 at P2X purinoceptor 7 came to 1180 nM; against P2X purinoceptor 3, 240 nM.
